# The list shows a part of the results, in another mix than the full data. Some results for these compounds are left out of this collection, so the calls shown say nothing about other tests. Active and inactive are the calls of the source.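 How the source made its calls: active means mean E-selectin-positive cell signal at least 10% of the positive control, reached in at least 60% of replicates, without over 20% cell loss; inconclusive means no rule given, readout overlaps actives, possibly toxicity-flagged; inactive means the rest, including those meeting only one limit.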
# The chains behind the UniProt entries cited, without tags or fusion partners.
# UniProt P16581, whole entry: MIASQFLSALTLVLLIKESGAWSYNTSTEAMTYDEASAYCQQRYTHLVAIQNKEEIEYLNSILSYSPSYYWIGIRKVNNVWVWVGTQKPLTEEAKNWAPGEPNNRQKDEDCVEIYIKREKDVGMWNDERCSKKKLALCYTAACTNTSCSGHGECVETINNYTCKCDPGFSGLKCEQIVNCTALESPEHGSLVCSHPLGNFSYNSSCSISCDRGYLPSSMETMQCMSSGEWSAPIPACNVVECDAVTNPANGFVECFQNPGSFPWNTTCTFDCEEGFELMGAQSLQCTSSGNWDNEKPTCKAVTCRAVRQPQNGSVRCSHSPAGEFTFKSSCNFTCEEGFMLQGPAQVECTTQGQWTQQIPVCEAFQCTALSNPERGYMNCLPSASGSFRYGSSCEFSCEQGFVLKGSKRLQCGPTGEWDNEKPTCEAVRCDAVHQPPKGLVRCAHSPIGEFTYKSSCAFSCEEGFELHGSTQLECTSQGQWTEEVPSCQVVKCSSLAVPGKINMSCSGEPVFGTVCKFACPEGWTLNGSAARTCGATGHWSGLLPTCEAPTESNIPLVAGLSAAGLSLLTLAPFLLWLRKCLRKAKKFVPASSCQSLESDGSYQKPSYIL
# Molecular target: E-selectin (Homo sapiens) (UniProt P16581)
# Test: E-selectin induction in HUVECs, primary screen, imaging, HUVEC, immunofluorescence imaging, single point (AID 686992);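 further: measured in HUVEC primary endothelial cells; signal is the percent of cells scored E-selectin positive by PE staining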
# Conditions: at 7.58 µM, stronger effect = higher value, normalized: neutral wells 0, TNF-alpha wells 100
# Summary of the method: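 System: HUVEC / Compound: single concentration / Signal: immunofluorescence imaging / Read-out: percent E-selectin-positive cells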
row,Structure (SMILES),activation
1,Cc1ccc(C(=O)NCC2(N3CCCCC3)CCCCC2)cc1,inactive: -0.076%
2,CCN(CC)CC(C)C(C)OC(=O)C(O)(c1ccccc1)c1ccccc1 (stereo not drawn),inactive: 0.521%
3,COc1cc(SC)ccc1C(=O)NCC1(N(C)C)CCCCC1,inactive: 20.4%
4,O=C(NCC1(N2CCCCC2)CCCCC1)c1cc([N+](=O)[O-])ccc1Cl,inactive: -0.0225%
5,CN(C)C1CCCC1OC(=O)C(O)(c1ccccc1)c1ccccc1 (stereo not drawn),inactive: -1.96%
6,CN(C)c1ccc(C(=O)NCC2(N(C)C)CCCCC2)cc1,inactive: -0.0345%
7,COc1cccc(C(=O)NCC2(N3CCCCC3)CCCCC2)c1,inactive: 6%
8,COc1cc(C(=O)NCC2(N(C)C)CCCCC2)c([N+](=O)[O-])cc1OC,inactive: 0.267%
9,CN(C)C1(CNC(=O)c2ccc(Br)cc2)CCCCC1,inactive: 0.164%
10,CC(C)Oc1ccc(C(=O)NCC2(N(C)C)CCCCC2)cc1,inactive: 2.37%
11,O=C(OCCN1CCCC1)C(O)(c1ccccc1)c1ccccc1,inactive: -0.101%
12,C=C(C)C#CC(O)(C(=O)OC1CCN(C)CC1)c1ccccc1 (stereo not drawn),inactive: 0.089%
13,COc1ccc(Br)c(C(=O)NCC2(N3CCCCC3)CCCCC2)c1,inactive: 3.56%

# — PubChem BioAssay AID686992 (Broad Institute, 2013)
